CAL PDZ FP-1 = inhibitors of human CAL PDZ peptide binding | AID 504414 | 330,000 tested, 0.02% active | inhibition, % at 20 µM | purified CAL PDZ, TMR-peptide fluorescence polarization, 1 h;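 active means highest replicate inhibition of at least 40%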
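Control set: unlabelled peptide and DMSO controls / Material: purified CerCALP PDZ construct / Timing: 1 h incubation at room temperature before polarization reading / Doses: 20 µM, one dose / Detection: fluorescence polarization (mP)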
ARNT-TACC3 inh = disrupts binding between human ARNT and TACC3. Q9Y6A5. AlphaScreen His-ARNT PAS-B/GST-TACC3 binding, luminescence; TACC3 fragment carries E629A point mutation. inhibition, % at 9.99 µM. 390,000 tested, 0.66% active. AID 623870;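 active means mean inhibition of replicates at least 50% and at least half of replicates each reaching 50%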
CAL PDZ FP-2 = inhibitors of human CAL PDZ peptide binding. Q9HD26. inhibition, % at 24.9 µM. 300,000 tested, 0.92% active. purified CAL PDZ, TMR-peptide fluorescence polarization, 1 h;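 active means mean inhibition of at least 30% with at least half of replicates also reaching 30%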
PglD inh = PglD (C. jejuni) enzyme inhibition | purified PglD enzyme, DTNB colorimetric CoA detection | inhibition, % at 12.5 µM | 360,000 tested, 0.098% active | AID 602405; in the data active means inhibition above about 16%, passing the limit was not always enough
Vif inh = inhibitors of HIV Vif; HEK293T cells, Vif self-association by quenched fluorescence, imaging, 24 h; inhibition, % at 7.49 µM; 340,000 tested, 0.35% active; AID 602346; in the data active means inhibition above about 50%, passing the limit was not always enough
UUG fidelity = modulators of yeast start codon fidelity, primary screen, whole organism, S. cerevisiae, single point, plate reader | AID 602363, 2012 | S. cerevisiae UUG-firefly luciferase reporter, luminescence/redox ratio | activity score, % at 18.7 µM | hit rate 0.13% among 350,000;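 active = replicate mean at a twofold rise or more, about +100% in these data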;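 also: firefly luciferase made from a UUG start codon reports start codon fidelity; reporter light over untreated wells divided by growth signal over untreated wells; some hits fall short of that in this replicate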
A number is an active result; n = inactive; x = no result given. Rows were chosen to be rich in hits. Some 1.6% of all compounds tested hit in one or more screens of this group.

SMILES	CAL PDZ FP-1	ARNT-TACC3 inh	CAL PDZ FP-2	PglD inh	Vif inh	UUG fidelity
C=CCN(c1ccccc1OC)S(=O)(=O)c1cccc(C(=O)Nc2nnc(C3CC3)s2)c1	n	n	40	n	n	n
CSc1cccc(N2CC(C(=O)NCCC3=CCCCC3)CC2=O)c1 (stereo not drawn)	n	n	n	n	66	n
CCc1ccc(N2CC(C(=O)NCCC3=CCCCC3)CC2=O)cc1 (stereo not drawn)	n	n	n	n	n	n
O=C1NCCCCC1NS(=O)(=O)c1ccc(F)c(F)c1 (stereo not drawn)	n	n	110	n	n	n
C[C@H]1CN([C@@H](C)CO)C(=O)Cc2cc(NC(=O)c3ccncc3)ccc2O[C@H]1CN(C)S(=O)(=O)c1cn(C)cn1	x	n	x	n	x	n
COc1ccc(C=C2CS(=O)(=O)CC(=Cc3ccc(OC)cc3)C2=O)cc1	x	x	x	n	112	n
COc1ccc(CN2C[C@H](O)COC[C@@H]3O[C@@H](CC(=O)NCc4ccccc4Cl)CC[C@H]32)cc1	x	n	x	n	x	n
COC(=O)c1ccccc1NC1=C/C(=N\S(=O)(=O)c2ccc(C(=O)O)cc2)c2ccccc2C1=O	n	72	n	n	n	n
CCc1ccc(S(=O)(=O)/N=C2\C=C(Nc3ccc(C(=O)O)cc3)C(=O)c3ccccc32)cc1	n	74	n	n	n	n
COc1ccc(NC(=O)N(C)C[C@@H]2OCCCC[C@H](C)Oc3ccc(NS(=O)(=O)c4ccc(OC)cc4)cc3C(=O)N([C@H](C)CO)C[C@@H]2C)cc1	x	n	x	n	x	n
Cc1cc(C(=O)Nc2cccc3c2O[C@H](CN(C)C(=O)Nc2ccccc2)[C@H](C)CN([C@@H](C)CO)C3=O)n(C)n1	x	n	x	n	x	n
CC(=O)NC[C@H]1[C@@H](c2ccc(-c3cccnc3)cc2)[C@@H](CO)N1C(=O)C1CCC1	x	n	x	n	x	n
CCNc1nc(OC)nc(N(OC)S(=O)(=O)c2ccc(C)cc2)n1	x	n	74	n	n	n
O=C(C[C@@H]1C[C@H]2c3cc(NC(=O)CC4CC4)ccc3O[C@H]2[C@@H](CO)O1)NCCc1ccccc1	x	n	x	n	x	n
Nc1nc(Sc2ccc([N+](=O)[O-])c3nonc23)c2[nH]cnc2n1	n	22	n	x	n	x
CNc1ncnc(Sc2nc(N)nc3nc[nH]c23)c1[N+](=O)[O-]	n	n	n	x	n	x
CC(=O)Nc1ccc(Cc2ccncc2)cc1	n	n	n	n	x	n
CCCCCC(=O)Nc1ccc(Cc2ccncc2)cc1	n	n	n	n	80	n
NCCCCCC(=O)Nc1ccncc1	n	n	n	x	60	x
S=C(NCCCn1ccnc1)Nc1cccc(Cl)c1	n	42	n	n	n	n
CCOc1ccc(NC(=S)NCCCn2ccnc2)cc1	n	x	n	x	n	x
C[C@H](O)C#Cc1cnc2c(c1)C(=O)N([C@H](C)CO)C[C@@H](C)[C@@H](CN(C)Cc1cccc(F)c1)O2	x	n	x	n	x	n
O=C(C1CCCC1)N1[C@@H]2CN(S(=O)(=O)c3ccc(F)cc3)c3ccccc3[C@@H]2[C@@H]1CO	x	n	x	n	x	n
Cc1cc(S(=O)(=O)Nc2nc(CN3CCOCC3)nc3sc4c(c23)CCC4)cc(C)c1C	n	n	n	n	n	n
COc1cccc(Nc2nc(CN3CCOCC3)nc3sc4c(c23)CCCC4)c1	n	n	n	n	96	n
SMILES	CAL PDZ FP-1	ARNT-TACC3 inh	CAL PDZ FP-2	PglD inh	Vif inh	UUG fidelity
CC1CCc2cc(F)ccc2N1C(=O)c1cccs1 (stereo not drawn)	n	n	32	n	n	n
COc1cc([N+](=O)[O-])ccc1NC(=O)/C=C/C(=O)O	n	n	71	x	n	x
CNC[C@@H]1Oc2ccc(NC(=O)Nc3ccc4c(c3)OCO4)cc2C(=O)N([C@@H](C)CO)C[C@H]1C	x	n	x	n	x	n
O=C(Nc1ccc(Nc2ccccc2)cc1)c1cc([N+](=O)[O-])ccc1Cl	n	n	46	n	n	n
CN1CCN(C(=S)c2ccc(OCC(=O)Nc3cccc(C(F)(F)F)c3)cc2)CC1	n	n	n	n	54	n
COC(=O)C1=CN(Cc2ccc(F)cc2)C=C(C(=O)OC)C1c1cc(OC)c(OC)c(OC)c1	n	n	n	n	n	n
COC(=O)C1=CN(Cc2ccc(OC)c(OC)c2)C=C(C(=O)OC)C1c1cccc(F)c1	n	n	58	n	n	n
